Measured values from patent US20090099157A1, “TETRAHYDRO-PYRAZOLO-PYRIDINE THIOETHER MODULATORS OF CATHEPSIN S” (priority 2007, published 2009).

Sequences of proteins named here, by UniProt entry; tags and fusion partners are left off. Residues count along the entry.
UniProt P25774, 115-331: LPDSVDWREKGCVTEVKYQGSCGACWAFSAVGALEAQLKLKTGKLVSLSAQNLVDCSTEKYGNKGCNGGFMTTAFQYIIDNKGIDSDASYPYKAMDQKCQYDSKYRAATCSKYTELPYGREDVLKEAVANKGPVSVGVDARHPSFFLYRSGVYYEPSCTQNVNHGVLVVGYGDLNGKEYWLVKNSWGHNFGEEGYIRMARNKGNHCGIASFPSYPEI

The compounds below were run against Recombinant human cathepsin S (CatS) (Homo sapiens, UniProt P25774) (assay: biochemical).

SMILES	IC50
CN1CCN(C(=O)N2CCc3c(c(-c4ccc(C(F)(F)F)c(SCCN5CCC(F)CC5)c4)nn3C[C@@H](O)CN3CCCCC3)C2)CC1 [Example 633, (2S)-1-{3-[3-{[2-(4-Fluoropiperidin-1-yl)ethyl]sulfanyl}-4-(trifluoromethyl)phenyl]-5-[(4-methylpiperazin-1-yl)carbonyl]-4,5,6,7-tetrahydro-1H-pyrazolo[4,3-c]pyridin-1-yl}-3-piperidin-1-ylpropan-2-ol]	1.18 µM
CS(=O)(=O)N1CCc2c(c(-c3ccc(C(F)(F)F)c(SCCN4CCC(N5CCCC5)CC4)c3)nn2CC(O)CN2CCC(O)(c3ccccn3)CC2)C1 (stereo not drawn) [Example 882, 1-(2-Hydroxy-3-{5-(methylsulfonyl)-3-[3-{[2-(4-pyrrolidin-1-ylpiperidin-1-yl)ethyl]sulfanyl}-4-(trifluoromethyl)phenyl]-4,5,6,7-tetrahydro-1H-pyrazolo[4,3-c]pyridin-1-yl}propyl)-4-pyridin-2-ylpiperidin-4-ol]	0.59 µM
CCS(=O)(=O)N1CCc2c(c(-c3ccc(C(F)(F)F)c(SCCN4CCC(F)CC4)c3)nn2CC(O)CN2CCCCC2)C1 (stereo not drawn) [Example 190, 1-{5-(Ethylsulfonyl)-3-[3-{[2-(4-fluoropiperidin-1-yl)ethyl]sulfanyl}-4-(trifluoromethyl)phenyl]-4,5,6,7-tetrahydro-1H-pyrazolo[4,3-c]pyridin-1-yl}-3-piperidin-1-ylpropan-2-ol]	0.24 µM
OC1CCN(CC(O)Cn2nc(-c3ccc(C(F)(F)F)c(SCCN4CCCCC4)c3)c3c2CCNC3)C1 (stereo not drawn) [Example 290, 1-[2-Hydroxy-3-(3-{3-[(2-piperidin-1-ylethyl)sulfanyl]-4-(trifluoromethyl)phenyl}-4,5,6,7-tetrahydro-1H-pyrazolo[4,3-c]pyridin-1-yl)propyl]pyrrolidin-3-ol]	> 20 µM
CS(=O)(=O)N1CCc2c(c(-c3ccc(C(F)(F)F)c(SCCN4CC[C@H](F)C4)c3)nn2C[C@@H](O)CN2CCOCC2)C1 [Example 358, (2S)-1-{3-[3-({2-[(3S)-3-Fluoropyrrolidin-1-yl]ethyl}sulfanyl)-4-(trifluoromethyl)phenyl]-5-(methylsulfonyl)-4,5,6,7-tetrahydro-1H-pyrazolo[4,3-c]pyridin-1-yl}-3-morpholin-4-ylpropan-2-ol]	2.11 µM
N#Cc1ccc(C2CCN(CC(O)Cn3nc(-c4ccc(C(F)(F)F)c(SCC(=O)N5CCCC5)c4)c4c3CCNC4)CC2)cc1 (stereo not drawn) [Example 425, 4-{1-[2-Hydroxy-3-(3-{3-[(2-oxo-2-pyrrolidin-1-ylethyl)sulfanyl]-4-(trifluoromethyl)phenyl}-4,5,6,7-tetrahydro-1H-pyrazolo[4,3-c]pyridin-1-yl)propyl]piperidin-4-yl}benzonitrile]	0.1 µM
CC1CCN(C[C@H](O)Cn2nc(-c3ccc(C(F)(F)F)c(SCCN4CCCC(F)C4)c3)c3c2CCN(S(C)(=O)=O)C3)CC1 (stereo partly drawn) [Example 471, (2S)-1-{3-[3-{[2-(3-Fluoropiperidin-1-yl)ethyl]sulfanyl}-4-(trifluoromethyl)phenyl]-5-(methylsulfonyl)-4,5,6,7-tetrahydro-1H-pyrazolo[4,3-c]pyridin-1-yl}-3-(4-methylpiperidin-1-yl)propan-2-ol]	0.17 µM
CC(=O)N1CCN(CC(O)Cn2nc(-c3ccc(C(F)(F)F)c(SCCN4CCOCC4)c3)c3c2CCN(S(C)(=O)=O)C3)CC1 (stereo not drawn) [Example 552, 1-(4-Acetylpiperazin-1-yl)-3-[5-(methylsulfonyl)-3-{3-[(2-morpholin-4-ylethyl)sulfanyl]-4-(trifluoromethyl)phenyl}-4,5,6,7-tetrahydro-1H-pyrazolo[4,3-c]pyridin-1-yl]propan-2-ol]	1.58 µM
CS(=O)(=O)N1CCc2c(c(-c3ccc(C(F)(F)F)c(SCCN4CCCC4)c3)nn2CC(O)CN2CCN(C3CC3)CC2)C1 (stereo not drawn) [Example 438, 1-(4-Cyclopropylpiperazin-1-yl)-3-[5-(methylsulfonyl)-3-{3-[(2-pyrrolidin-1-ylethyl)sulfanyl]-4-(trifluoromethyl)phenyl}-4,5,6,7-tetrahydro-1H-pyrazolo[4,3-c]pyridin-1-yl]propan-2-ol]	0.57 µM
CC(C)(C)OC(=O)NCCSc1cc(-c2nn(CC(O)CN3CCC(N4CCCC4=O)CC3)c3c2CN(S(C)(=O)=O)CC3)ccc1C(F)(F)F (stereo not drawn) [Example 61, {2-[5-(1-{2-Hydroxy-3-[4-(2-oxo-pyrrolidin-1-yl)-piperidin-1-yl]-propyl}-5-methanesulfonyl-4,5,6,7-tetrahydro-1H-pyrazolo[4,3-c]pyridin-3-yl)-2-trifluoromethyl-phenylsulfanyl]-ethyl}-carbamic acid tert-butyl ester]	0.25 µM
OC(CN1CCCCC1)Cn1nc(-c2ccc(C(F)(F)F)c(SCCN3CCCCC3)c2)c2c1CCNC2 (stereo not drawn) [Example 289, 1-Piperidin-1-yl-3-(3-{3-[(2-piperidin-1-ylethyl)sulfanyl]-4-(trifluoromethyl)phenyl}-4,5,6,7-tetrahydro-1H-pyrazolo[4,3-c]pyridin-1-yl)propan-2-ol]	9.57 µM
CC1CCN(C(=O)CSc2cc(-c3nn(CCCN4CCC(N5CCCC5=O)CC4)c4c3CN(S(C)(=O)=O)CC4)ccc2C(F)(F)F)CC1 [Example 90, 1-{1-[3-(5-Methanesulfonyl-3-{3-[2-(4-methyl-piperidin-1-yl)-2-oxo-ethylsulfanyl]-4-trifluoromethyl-phenyl}-4,5,6,7-tetrahydro-pyrazolo[4,3-c]pyridin-1-yl)-propyl]-piperidin-4-yl}-pyrrolidin-2-one]	0.22 µM
CN1CCN(C(=O)CSc2cc(-c3nn(CCCN4CCC(N5CCCC5=O)CC4)c4c3CN(S(C)(=O)=O)CC4)ccc2C(F)(F)F)CC1 [Example 103]	0.77 µM
CS(=O)(=O)N1CCc2c(c(-c3ccc(C(F)(F)F)c(SCCN4CCC(O)(c5ccccn5)CC4)c3)nn2C[C@@H](O)CN2CCOCC2)C1 [Example 728, 1-(2-{[5-{1-[(2S)-2-Hydroxy-3-morpholin-4-ylpropyl]-5-(methylsulfonyl)-4,5,6,7-tetrahydro-1H-pyrazolo[4,3-c]pyridin-3-yl}-2-(trifluoromethyl)phenyl]sulfanyl}ethyl)-4-pyridin-2-ylpiperidin-4-ol]	1 µM
CS(=O)(=O)N1CCc2c(c(-c3ccc(C(F)(F)F)c(SCC(=O)N4CCOCC4)c3)nn2CC(O)CN2CCC(N3CCCC3)CC2)C1 (stereo not drawn) [Example 686, 1-[5-(Methylsulfonyl)-3-{3-[(2-morpholin-4-yl-2-oxoethyl)sulfanyl]-4-(trifluoromethyl)phenyl}-4,5,6,7-tetrahydro-1H-pyrazolo[4,3-c]pyridin-1-yl]-3-(4-pyrrolidin-1-ylpiperidin-1-yl)propan-2-ol]	0.17 µM
CS(=O)(=O)N1CCc2c(c(-c3ccc(C(F)(F)F)c(SCC(=O)N4CCOCC4)c3)nn2CC(O)CN2CC[C@@H](O)C2)C1 (stereo partly drawn) [Example 408, (3R)-1-{2-Hydroxy-3-[5-(methylsulfonyl)-3-{3-[(2-morpholin-4-yl-2-oxoethyl)sulfanyl]-4-(trifluoromethyl)phenyl}-4,5,6,7-tetrahydro-1H-pyrazolo[4,3-c]pyridin-1-yl]propyl}pyrrolidin-3-ol]	0.33 µM
CS(=O)(=O)N1CCc2c(c(-c3ccc(Cl)c(SCCc4ccccc4)c3)nn2CCCN2CCOCC2)C1 [Example 129, 3-(4-Chloro-3-phenethylsulfanyl-phenyl)-5-methanesulfonyl-1-(3-morpholin-4-yl-propyl)-4,5,6,7-tetrahydro-1H-pyrazolo[4,3-c]pyridine]	1.47 µM
CC(=O)NC1CCN(C[C@H](O)Cn2nc(-c3ccc(C(F)(F)F)c(SCCN4CCCC(F)(F)C4)c3)c3c2CCN(S(C)(=O)=O)C3)CC1 [Example 141, (2S)—N-{1-[3-(3-{3-[2-(3,3-Difluoro-piperidin-1-yl)-ethylsulfanyl]-4-trifluoromethyl-phenyl}-5-methanesulfonyl-4,5,6,7-tetrahydro-pyrazolo[4,3-c]pyridin-1-yl)-2-hydroxy-propyl]-piperidin-4-yl}-acetamide]	0.05 µM
COc1ccccc1N1CCN(CC(O)Cn2nc(-c3ccc(C(F)(F)F)c(SCCN4CCCCC4)c3)c3c2CCN(S(C)(=O)=O)C3)CC1 (stereo not drawn) [Example 776, 1-{4-[2-(Methyloxy)phenyl]piperazin-1-yl}-3-[5-(methylsulfonyl)-3-{3-[(2-piperidin-1-ylethyl)sulfanyl]-4-(trifluoromethyl)phenyl}-4,5,6,7-tetrahydro-1H-pyrazolo[4,3-c]pyridin-1-yl]propan-2-ol]	0.045 µM
CS(=O)(=O)N1CCc2c(c(-c3ccc(C(F)(F)F)c(SCCN4CCCC(F)(F)C4)c3)nn2C[C@@H](O)CN2CCSCC2)C1 [Example 588, (2S)-1-{3-[3-{[2-(3,3-Difluoropiperidin-1-yl)ethyl]sulfanyl}-4-(trifluoromethyl)phenyl]-5-(methylsulfonyl)-4,5,6,7-tetrahydro-1H-pyrazolo[4,3-c]pyridin-1-yl}-3-thiomorpholin-4-ylpropan-2-ol]	0.18 µM
CS(=O)(=O)N1CCc2c(c(-c3ccc(C(F)(F)F)c(SCC(=O)N4CCCCC4)c3)nn2CC(O)CN2CCC(c3ccccn3)CC2)C1 (stereo not drawn) [Example 258, 1-[5-(Methylsulfonyl)-3-{3-[(2-oxo-2-piperidin-1-ylethyl)sulfanyl]-4-(trifluoromethyl)phenyl}-4,5,6,7-tetrahydro-1H-pyrazolo[4,3-c]pyridin-1-yl]-3-(4-pyridin-2-ylpiperidin-1-yl)propan-2-ol]	0.01 µM
CS(=O)(=O)N1CCc2c(c(-c3ccc(C(F)(F)F)c(SCCN4CCOCC4)c3)nn2CCCN2CCC(N3CCCC3=O)CC2)C1 [Example 22, 1-[1-(3-{5-Methanesulfonyl-3-[3-(2-morpholin-4-yl-ethylsulfanyl)-4-trifluoromethyl-phenyl]-4,5,6,7-tetrahydro-pyrazolo[4,3-c]pyridin-1-yl}-propyl)-piperidin-4-yl]-pyrrolidin-2-one]	0.27 µM
CS(=O)(=O)N1CCc2c(c(-c3ccc(C(F)(F)F)c(SCC(=O)N4CCC(O)CC4)c3)nn2CCCN2CCC(N3CCCC3=O)CC2)C1 [Example 78]	0.14 µM
O=C(c1ccco1)N1CCc2c(c(-c3ccc(C(F)(F)F)c(SCCN4CCCCC4)c3)nn2CC(O)CN2CCC(N3CCCC3=O)CC2)C1 (stereo not drawn) [Example 247, 1-(1-{3-[5-(Furan-2-ylcarbonyl)-3-{3-[(2-piperidin-1-ylethyl)sulfanyl]-4-(trifluoromethyl)phenyl}-4,5,6,7-tetrahydro-1H-pyrazolo[4,3-c]pyridin-1-yl]-2-hydroxypropyl}piperidin-4-yl)pyrrolidin-2-one]	0.09 µM
